Bioassay records (PubChem BioAssay)
Rango release inh: inhibition of RanGTP-driven Rango-importin beta dissociation | Biochemical FRET Rango-importin beta, RanGTP-induced dissociation | Potency, µM (highest dose often 46.1 µM), for inactives: at the highest dose activity change, negative = inhibition | 340,000 compounds, 0.071% hits | AID 540253; further: potency means the concentration at half of the fitted maximal effect; % of control where 0% means no effect; nearly all actives have a fitted effect of over 45% in size
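Two FRET readings bracket the reaction: one 5 min after compound meets Rango–importin beta, another 45 min after RanGTP-RCC1 (0.6 uM Ran, 0.2 uM RCC1, 2 mM GTP) is added. Only the second defines inhibition.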
hERG WT inh: KCNH2 (human, wildtype) channel inhibition | Q12809 | U2OS, BacMam KCNH2, thallium flux FluxOr; active compounds read low | activity change, % at 1.84 µM | 340,000 compounds, 0.37% hits;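 active means maximum activity change below -70%; inconclusive means maximum activity change between -70% and -50%; inactive means maximum activity change above -50%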; further: on the % scale 0 is the no-effect control and ±100 the full control effect
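U2OS cells were transduced with wild-type KCNH2 virus (2.03 x 10^8 / mL) for 4 h at room temperature, then cultured overnight at 37 C. Thallium flux was read with FluxOr dye. Rate constants were normalized to DMSO controls.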
Rango-impB inh: Rango-importin beta binding inhibition; 340,000 compounds, 0.031% hits; Rango CFP/YFP FRET sensor + importin beta, 45 min; Potency, µM (doses to about 92.2 µM), for inactives: at the top dose inhibition of complex formation;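 further: potency means the concentration at half of the fitted maximal effect; 0% = DMSO wells and 100% = buffer wells lacking importin beta; nearly all actives have a fitted effect of over 15% in size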
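FRET biosensor (snurportin 1 IBB flanked by EYFP and cerulean), 50 nM, with compound 5 min, then 0.125 microM importin beta in PBS, 1 mM DTT, 0.02% Tween-20, 0.1% BSA. CFP/YFP ratio read after 45 min at room temperature; pre-read flags interference.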
KCNH2 3.1 block: blocks the human KCNH2 3.1 channel isoform; U2OS KCNH2 3.1, thallium flux FluxOr; active compounds read low; activity change, % (tested at about 1.8 µM); 340,000 compounds, 0.95% hits;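 active means maximum activity change below -70%; inconclusive means maximum activity change from -70% to -50%; inactive means maximum activity change above -50%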;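 further: thallium influx rate constant from kinetic fluorescence after stimulation buffer; on the % scale 0 is the no-effect control and ±100 the full control effect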
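U2OS cells transduced with KCNH2 3.1 mutant virus (1.77 x 10^8 /mL, 4 h), plated overnight at 37 C, loaded 45 min with FluxOr dye plus Red40 quencher. Thallium flux rate constant from kinetic reads after stimulation buffer, normalised to controls.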
* marks the source's active call; other numbers are inactive results; ? = inconclusive; . = not tested or not shown. A selection: hits, their analogues and other compounds. The true share with any hit is near 1.3%. Unless noted, the call rests on the fitted dose curve.

Molecule | hERG WT inh | KCNH2 3.1 block | Rango release inh | Rango-impB inh
O=C(Nc1ccccc1Oc1cccnc1)C1CCCN(C/C=C/c2ccccc2)C1 (centres undefined) | -19.2 | -85.0* | 30.9% | 0.5%
CCn1ncc(CN2CCC(n3nccc3NC(=O)c3ccccc3Cl)CC2)c1C | 62.8 | -17.2 | . | .
O=C(Nc1ccnn1C1CCN(CC2CC=CCC2)CC1)c1ccccc1Cl (centres undefined) | 23.4 | -78.7* | -4.0% | ?
COc1ccccc1C(=O)Nc1ccnn1C1CCN(Cc2ccn[nH]2)CC1 | 6.4 | . | -13.3% | 3.8%
CC[C@H](C)[C@H]1CNC(=O)C(=O)N1CC1CCN(CCCc2ccc(OC)c(OC)c2)CC1 | 5.1 | 3.0 | 4.7% | -0.8%
O=C(Nc1ccnn1C1CCN(C/C=C/c2ccccc2)CC1)c1ccccc1Cl | -107.4* | -106.9* | 0.0% | -0.4%
CCN1CCC(n2nccc2NC(=O)c2ccccc2Cl)CC1 | 20.5 | -0.8 | -0.5% | -3.0%
COC(=O)COc1ccc(C(=O)Cn2c(NCCCO)nc3ccccc32)cc1 | -14.1 | 11.3 | 2.6% | 0.2%
CCOc1cc(/C=C(\C#N)C(=O)Nc2cccc(C(=O)O)c2)cc(Br)c1OC(=O)c1ccc(OC)cc1 | -0.7 | -111.6* | ? | ?
CCOc1cc(/C=C(\C#N)C(=O)Nc2cccc(C(=O)O)c2)ccc1OCc1ccccc1Cl | -8.4 | -22.4 | 0.8% | 4.9%
CC(C)n1nnnc1SCC(=O)Nc1ccccc1F | -10.0 | -42.3 | -21.7% | -0.2%
Brc1ccc2ncnc(Nc3ccc(N4CCOCC4)cc3)c2c1 | 1.5 | -104.5* | 17.9% | 0.3%
O=C(Cc1ccc(NC(=O)C2CCN(C(=O)C3CCCCC3)CC2)cc1)Nc1ccc(C(=O)N2CCOCC2)cc1 | -3.9 | -24.0 | -8.5% | 0.2%
CCCCCCCCCCCCCCCC[N+](C)(C)CCN(Cc1ccc(OC)cc1)c1ncccn1 | -5.5 | -7.4 | 5.9% | 65.1µM*
O=C(O)CC(c1ccccc1)N1C(=O)c2ccccc2C1=O (centres undefined) | -1.0 | -75.7* | -6.0% | 1.3%
O=C(O)C(c1ccccc1)N1C(=O)c2ccccc2C1=O (centres undefined) | -13.3 | 13.1 | -12.2% | -0.8%
COc1ccc(CNC(=O)C2(CC3CC(c4ccccc4)=NO3)CCN(C(=O)CCCCCBr)CC2)cc1 (centres undefined) | -112.5* | -133.0* | -7.6% | -1.5%
CCCCCCCNC(=O)C1(CC2CC(c3ccc(Cl)cc3)=NO2)CCN(C(=O)CCCCCBr)CC1 (centres undefined) | -88.8* | -82.6* | 30.5% | -0.4%
O=C(CCCCCBr)N1CCC(CC2CC(c3ccc(Cl)cc3)=NO2)(C(=O)NCC2CCCCC2)CC1 (centres undefined) | -95.4* | ? | 0.6% | 7.1%
COc1ccc(N/C=C\C(=O)c2ccc(C)cc2)cc1OC | -22.0 | -140.9* | ? | ?

Look-ups from the results shown:
Value for `O=C(O)CC(c1ccccc1)N1C(=O)c2ccccc2C1=O` (centres undefined) in hERG WT inh: -1.0
Value for `O=C(CCCCCBr)N1CCC(CC2CC(c3ccc(Cl)cc3)=NO2)(C(=O)NCC2CCCCC2)CC1` (centres undefined) in Rango-impB inh: 7.1%

Three neighbouring compounds already listed:
Molecule | hERG WT inh | KCNH2 3.1 block | Rango release inh | Rango-impB inh
CCCCCCCNC(=O)C1(CC2CC(c3ccc(Cl)cc3)=NO2)CCN(C(=O)CCCCCBr)CC1 (centres undefined) | -88.8* | -82.6* | 30.5% | -0.4%
O=C(CCCCCBr)N1CCC(CC2CC(c3ccc(Cl)cc3)=NO2)(C(=O)NCC2CCCCC2)CC1 (centres undefined) | -95.4* | ? | 0.6% | 7.1%
COc1ccc(N/C=C\C(=O)c2ccc(C)cc2)cc1OC | -22.0 | -140.9* | ? | ?

Next records follow.
Molecule | hERG WT inh | KCNH2 3.1 block | Rango release inh | Rango-impB inh
Cc1ccc(-c2nc3c(Cl)cc(Cl)cc3c(=O)n2O)cc1 | 4.7 | 8.9 | -15.7% | -0.2%
O=C1CC(=C(c2ccccc2)c2ccccc2)C(=O)N1CCCCN1CCN(c2cccc(Cl)c2)CC1 | -75.4* | -74.1* | 4.1% | 0.6%
CCS(=O)(=O)N1CCC(C(=O)Nc2ccc(C(C)=O)cc2)CC1 | 0.8 | 16.9 | -3.2% | 0.3%
CN(C)C1=NC[C@H](Cc2ccccc2)N1CCCCc1ccccc1 | 19.6 | -92.0* | -17.3% | 4.2%
CCCCCCCN1C(N(C)C)=NC[C@@H]1Cc1ccccc1 | -41.9 | -90.1* | -7.7% | -1.0%
NC(=O)C1CCN(CC(=O)Nc2ccc(S(=O)(=O)N3CCOCC3)cc2)CC1 | 27.9 | -20.0 | -0.1% | 11.1%
COc1ccc(Cl)cc1NC(=O)Cn1c(C)csc1=O | -1.3 | 4.6 | 10.5% | -6.2%
C[C@H](O)[C@@H]1C(=O)N2CCc3c([nH]c4ccccc34)[C@@H]2C[C@@H]1N(C)C(=O)NC1CCCCC1 | -114.4* | -13.7 | . | .
COCC(=O)N(C)[C@H]1C[C@H]2c3[nH]c4ccccc4c3CCN2C(=O)[C@H]1[C@H](C)O | -4.1 | -0.6 | . | .
Cc1ccc(C)c(OCCC(=O)OCC(=O)NNC(=O)c2ccccc2)c1 | -9.3 | -19.5 | 15.8% | -0.6%
Cc1cc(-c2ccccc2)nc2c(Br)c(C(=O)O)nn12 | -4.8 | -82.2* | -9.2% | 0.0%
CCCC(C)C(=O)Nc1ccc2c(c1)OCCO2 (centres undefined) | -0.2 | 4.6 | -4.9% | -0.7%
CCCC(C)C(=O)Nc1cccc(NC(C)=O)c1 (centres undefined) | -20.7 | -92.5* | 0.2% | -0.8%
